Read-outs that look alike come from different tables or passages of the source.
Tests used:
PETN reductase [1] = biological target: T1, PETN reductase (Enterobacter cloacae, UniProt P71278); settings: for substrate for PETN reductase: purified enzyme and NADPH
PETN reductase [2] = biological target: T1, PETN reductase; assay: Apparent Km of PETN reductase for nitrate ester substrates; settings: read-out: apparent Km for GTN; 50 mM phosphate buffer, pH 7.0, 0.2 mM NADPH; GTN 5 μM to 200 μM; one standard error

The chains behind the UniProt entries cited, without tags or fusion partners. Residues count along the entry.
UniProt P71278, 2-365 limits assumed: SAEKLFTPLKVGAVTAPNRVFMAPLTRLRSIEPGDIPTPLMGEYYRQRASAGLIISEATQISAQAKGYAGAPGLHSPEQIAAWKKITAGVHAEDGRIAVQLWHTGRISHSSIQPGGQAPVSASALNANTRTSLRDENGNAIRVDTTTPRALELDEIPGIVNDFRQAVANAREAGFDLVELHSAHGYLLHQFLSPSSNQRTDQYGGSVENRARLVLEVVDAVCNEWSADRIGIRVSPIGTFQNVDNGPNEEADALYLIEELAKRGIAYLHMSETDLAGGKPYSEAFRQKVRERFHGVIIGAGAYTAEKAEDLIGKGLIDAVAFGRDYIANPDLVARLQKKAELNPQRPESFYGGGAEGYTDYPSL

| SMILES | substrate for PETN reductase (PETN reductase [1]) | substrate for PETN reductase (PETN reductase [1]; listed as pentaerythritol dinitrate) | liberation of nitrite by PETN reductase (PETN reductase [1]; in the presence of NADPH) | Km (PETN reductase [2]) [µM] |
| --- | --- | --- | --- | --- |
| O=[N+]([O-])OCC(CO)(CO)CO[N+](=O)[O-] | not a substrate | does not appear to be a substrate | – | – |
| O=[N+]([O-])OCC(CO[N+](=O)[O-])O[N+](=O)[O-] | – | – | liberate nitrite | 22 |
